Results published in BindingDB's records for doi:10.1021/jm800986w (The Scripps Research Institute, 2008).

Sequences of proteins named here, by UniProt entry; tags and fusion partners are left off. A change or cut given only in a name is not applied to a line headed by its entry.
UniProt Q5VT25: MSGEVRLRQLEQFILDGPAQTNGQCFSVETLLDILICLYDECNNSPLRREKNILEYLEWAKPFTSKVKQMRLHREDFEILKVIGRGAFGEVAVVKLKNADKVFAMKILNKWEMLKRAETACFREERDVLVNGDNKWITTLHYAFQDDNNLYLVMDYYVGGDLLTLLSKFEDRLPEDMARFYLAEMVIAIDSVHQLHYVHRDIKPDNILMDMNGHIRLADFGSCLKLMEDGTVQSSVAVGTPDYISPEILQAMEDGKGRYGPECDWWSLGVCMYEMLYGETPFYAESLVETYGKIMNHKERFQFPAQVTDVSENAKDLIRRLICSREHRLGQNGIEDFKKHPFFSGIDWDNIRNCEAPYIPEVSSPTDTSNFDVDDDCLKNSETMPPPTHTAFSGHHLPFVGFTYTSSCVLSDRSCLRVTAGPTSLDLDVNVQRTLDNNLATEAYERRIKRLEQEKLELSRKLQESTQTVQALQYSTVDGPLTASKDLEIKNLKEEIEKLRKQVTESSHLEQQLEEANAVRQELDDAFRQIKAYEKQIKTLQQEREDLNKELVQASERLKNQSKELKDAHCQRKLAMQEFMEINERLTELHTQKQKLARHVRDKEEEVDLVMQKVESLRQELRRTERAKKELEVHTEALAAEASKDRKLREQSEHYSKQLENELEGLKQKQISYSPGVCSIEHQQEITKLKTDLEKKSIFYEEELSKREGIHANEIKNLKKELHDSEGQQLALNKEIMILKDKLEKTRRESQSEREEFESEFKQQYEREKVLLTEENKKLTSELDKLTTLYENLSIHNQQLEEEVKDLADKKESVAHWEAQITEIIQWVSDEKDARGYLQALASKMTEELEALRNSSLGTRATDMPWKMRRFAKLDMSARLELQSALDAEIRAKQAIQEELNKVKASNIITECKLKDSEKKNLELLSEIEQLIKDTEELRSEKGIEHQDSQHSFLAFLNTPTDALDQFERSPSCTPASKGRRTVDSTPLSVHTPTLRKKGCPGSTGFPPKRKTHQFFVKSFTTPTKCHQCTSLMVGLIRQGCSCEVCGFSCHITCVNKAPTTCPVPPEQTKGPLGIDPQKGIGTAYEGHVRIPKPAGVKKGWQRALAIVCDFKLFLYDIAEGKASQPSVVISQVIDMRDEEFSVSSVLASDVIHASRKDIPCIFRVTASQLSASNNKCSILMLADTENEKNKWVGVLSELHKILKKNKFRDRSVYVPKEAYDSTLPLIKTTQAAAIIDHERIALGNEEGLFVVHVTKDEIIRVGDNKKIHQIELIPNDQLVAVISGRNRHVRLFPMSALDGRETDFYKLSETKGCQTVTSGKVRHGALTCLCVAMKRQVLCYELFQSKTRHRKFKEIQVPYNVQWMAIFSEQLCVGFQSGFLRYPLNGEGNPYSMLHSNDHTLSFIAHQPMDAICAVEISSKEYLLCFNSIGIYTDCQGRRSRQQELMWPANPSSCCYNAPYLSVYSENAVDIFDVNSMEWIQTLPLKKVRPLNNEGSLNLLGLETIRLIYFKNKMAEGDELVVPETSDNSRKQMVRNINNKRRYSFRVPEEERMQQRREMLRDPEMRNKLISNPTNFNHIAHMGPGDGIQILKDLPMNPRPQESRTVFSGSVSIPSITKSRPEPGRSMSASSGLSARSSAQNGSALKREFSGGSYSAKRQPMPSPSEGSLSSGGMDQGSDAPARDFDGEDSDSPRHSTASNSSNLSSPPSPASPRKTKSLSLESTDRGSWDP

Target: Serine/threonine-protein kinase MRCK alpha (Homo sapiens, UniProt Q5VT25)
Experiment: MRCK Inhibition Assay
Conditions: pH 7.3; 22 °C

- IC50: 4.85 µM
SMILES: O=C(Nc1nc(-c2ccncc2)cs1)C1COc2ccccc2O1 (stereo unspecified)
